Source: patent publication US9169224B2, “Piperazinyl and piperidinyl ureas as modulators of fatty acid amide hydrolase” (Janssen Pharmaceutica NV, priority 2004, dated 2015)

Amino acid sequences for entries named in this document (tags omitted).
UniProt O00519, whole entry: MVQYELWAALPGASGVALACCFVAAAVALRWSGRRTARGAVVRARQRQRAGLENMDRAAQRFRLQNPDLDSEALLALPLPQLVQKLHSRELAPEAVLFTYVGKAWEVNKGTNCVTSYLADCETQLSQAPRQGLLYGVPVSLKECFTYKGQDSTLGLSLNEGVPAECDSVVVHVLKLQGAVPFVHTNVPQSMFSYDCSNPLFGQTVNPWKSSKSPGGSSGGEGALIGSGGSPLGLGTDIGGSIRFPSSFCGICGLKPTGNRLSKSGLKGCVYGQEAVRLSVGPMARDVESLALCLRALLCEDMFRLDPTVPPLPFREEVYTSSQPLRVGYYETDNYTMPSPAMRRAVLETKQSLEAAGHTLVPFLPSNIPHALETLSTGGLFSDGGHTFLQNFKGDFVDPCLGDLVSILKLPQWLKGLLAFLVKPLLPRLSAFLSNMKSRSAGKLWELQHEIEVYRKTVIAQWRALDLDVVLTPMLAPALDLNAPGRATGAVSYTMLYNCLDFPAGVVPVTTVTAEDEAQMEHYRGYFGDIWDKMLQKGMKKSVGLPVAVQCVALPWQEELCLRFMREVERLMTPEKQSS
UniProt P97612, whole entry: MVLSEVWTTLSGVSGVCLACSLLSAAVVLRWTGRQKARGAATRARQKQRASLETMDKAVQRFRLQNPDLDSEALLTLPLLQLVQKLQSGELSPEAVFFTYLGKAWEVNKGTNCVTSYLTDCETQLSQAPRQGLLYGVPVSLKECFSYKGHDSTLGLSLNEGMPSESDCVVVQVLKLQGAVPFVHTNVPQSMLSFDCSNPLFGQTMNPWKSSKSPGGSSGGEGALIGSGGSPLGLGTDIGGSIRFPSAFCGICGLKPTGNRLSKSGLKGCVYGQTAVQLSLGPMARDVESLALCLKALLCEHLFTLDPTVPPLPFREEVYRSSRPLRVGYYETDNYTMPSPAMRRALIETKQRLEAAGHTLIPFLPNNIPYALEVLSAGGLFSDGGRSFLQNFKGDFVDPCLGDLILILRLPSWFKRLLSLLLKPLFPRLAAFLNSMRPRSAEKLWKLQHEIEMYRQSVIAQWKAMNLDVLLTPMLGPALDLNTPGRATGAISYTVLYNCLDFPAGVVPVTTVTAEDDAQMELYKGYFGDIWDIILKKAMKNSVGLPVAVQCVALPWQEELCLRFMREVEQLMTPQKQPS

Experiments:
[1] = molecular target: FAAH (Homo sapiens (Human), UniProt O00519); assay: Assay Method 2: FAAH assay, cells transfected with human FAAH; format: biochemical; conditions: T84 or human FAAH-transfected SK-N-MC cell homogenate, 3H-AEA tracer 80 nM, 1 h at rt
Procedure: Assay Method 2 A. Transfection of Cells with Human FAAH
(§1) A 10-cm tissue culture dish with a confluent monolayer of SK-N-MC cells was split 2 days (d) prior to transfection. Using sterile technique, the media was removed and the cells were detached from the dish by the addition of trypsin. One fifth of the cells were then placed onto a new 10-cm dish. Cells were grown in a 37° C. incubator with 5% CO2 in Minimal Essential Media Eagle with 10% Fetal Bovine Serum. After 2 d, cells were approximately 80% confluent. These cells were removed from the dish with trypsin and pelleted in a clinical centrifuge. The pellet was re-suspended in 400 μL complete media and transferred to an electroporation cuvette with a 0.4 cm gap between the electrodes. Supercoiled human FAAH cDNA (1 pg) was added to the cells and mixed. The voltage for the electroporation was set at 0.25 kV, and the capacitance was set at 960 μF. After electroporation, the cells were diluted into complete media (10 mL) and plated onto four 10-cm dishes. Because of the variability in the efficiency of electroporation, four different concentrations of cells were plated. The ratios used were 1:20, 1:10, and 1:5, with the remainder of the cells being added to the fourth dish. […] After 10 d, dishes were analyzed for surviving colonies of cells. […]

[2] = molecular target: rat FAAH (Rattus norvegicus (Rat), UniProt P97612); assay: Assay Method 3: FAAH assay, cells transfected with rat FAAH; format: biochemical; conditions: T84 or rat FAAH-transfected SK-N-MC cell homogenate, 3H-AEA tracer 80 nM, 1 h at rt
Procedure: Assay Method 3 A. Transfection of Cells with Rat FAAH
as §1, with “rat” for “human”, “μg)” for “pg)”

IC50 [1]: 0.13 µM
IC50 [2]: 0.29 µM
Compound: O=C(Nc1cccnc1)N1CCN(Cc2ccc3c(c2)OC(F)(F)O3)CC1 [Example 150, 4-(2,2-Difluoro-benzo[1,3]dioxol-5-ylmethyl)-piperazine-1-carboxylic acid pyridin-3-ylamide]
